## Ab-14 heavy chain CDR variants: yeast mating affinities

The measurements come from Engelhart et al. 2022 (doi:10.1038/s41597-022-01779-4) through the FLAb antibody collection.

Antigen: PDVDLGDISGINAS, a 14-residue peptide of the SARS-CoV-2 spike HR2 region.

Ab-14 is the parent antibody, in scFv form: VH, then a 15-residue (Gly4Ser)3 linker, then VL. The light chain is unchanged in all variants.
VH: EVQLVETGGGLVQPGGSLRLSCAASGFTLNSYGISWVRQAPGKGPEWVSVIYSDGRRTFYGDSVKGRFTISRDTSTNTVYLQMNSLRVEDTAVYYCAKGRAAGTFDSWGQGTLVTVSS
VL: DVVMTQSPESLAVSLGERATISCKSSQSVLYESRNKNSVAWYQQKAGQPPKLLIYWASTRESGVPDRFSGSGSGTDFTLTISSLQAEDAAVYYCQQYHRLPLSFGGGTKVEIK

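Phage display of a naive human antibody library on the peptide gave the parent. Variants in AAYL49 differ from the parent at up to three CDR positions; double and triple changes were sampled at random. The scFvs were displayed on barcoded MATa yeast, the peptide on MATalpha yeast. After mating in shaken culture at 30 °C for 16 h, diploids were selected and their barcode pairs sequenced. The ratio of observed to expected reads was calibrated, replicate by replicate, on BCL2-family standards whose Kd was known from biolayer interferometry. The assay was run in three technical replicates.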

The parent's heavy chain CDRs are GFTLNSYGIS, VIYSDGRRTFYGDSVK, GRAAGTFDS; each variant's own CDRs replace them letter for letter.
Affinities are written as log10 Kd with Kd in nM; a lower number is a better binder.
An entry "ND" has no value in the source: the pair was not observed among the diploids in that replicate. This suggests poor binding but is not conclusive.
Background: pairings of library AAYL49 with three empty control strains gave a value in 15% of cases (median 4.06, 5th percentile 2.83). Values in that range, when seen in few replicates, are hard to tell from nonspecific mating. The control count says in how many pairings with the empty strains this scFv gave a signal.

With GVTLNSYGIS / VIYSDGRRTFYGDSCK / GRAAGYFDS the result was ND, ND, ND (controls 2 of 9).
With GFTLNSSGIS / VIYSDGRRTFFGDSVK / GRAAGTADS the result was 5.22, ND, ND (controls 8 of 9).
With GFTLNSYGIS / VIYSDVRRTFYGDSVK / GRAALTFDS the result was ND, ND, ND (controls 0 of 9).
With GFMLNSYGIS / VIYSDGRRTFYGDFVK / GRAAGTFDS the result was 2.00, 2.31, 2.65 (controls 2 of 9).
With HTTLNSYGIS / DIYSDGRRTFYGDSVK / GRAAGTFDS the result was ND, ND, 5.17 (controls 2 of 9).
With GFTLNSYGIS / VIYSDGRRTFYGDSVK / GRAAGKFDR the result was ND, ND, ND (controls 0 of 9).
With DFTLNSYGIS / VIYSDMRRTFYGDSVK / TRAAGTFDS the result was 4.45, ND, ND (controls 1 of 9).
With GRTLASYGIS / VIYSDGRRTFYGDSVK / GRAQGTFDS the result was ND, 2.99, ND (controls 1 of 9).
With GFTLNSSGIS / VIYSDGRRTFYGDSVK / GRAAGTFDS the result was ND, ND, ND (controls 2 of 9).
With GFTLNSYGIS / VIKSDGRMTFYGDSVK / GRAAGTFDS the result was ND, ND, 4.84 (controls 0 of 9).
With GFTLNKYGIS / VIYSDRRRTFYGDSVN / GRAAGTFDS the result was ND, ND, ND (controls 3 of 9).
With GFTLNAYGIS / VIYSDGRRTFYGFSVK / GRAAGTFDV the result was ND, ND, ND (controls 1 of 9).
With GFTLNSYKIS / VIYSDGRRTVYVDSVK / GRAAGTFDS the result was ND, ND, ND (controls 0 of 9).
With GFTLNSYGIS / VIYKDGRRTFYGDSVQ / GRAAGGFDS the result was ND, ND, ND (controls 0 of 9).
With GFILCSYGIS / MIYSDGRRTFYGDSVK / GRAAGTFDS the result was ND, 5.19, ND (controls 4 of 9).
With GFTLNSYGIS / VIYEDGRRTFYGDSDK / GRAAGTFDA the result was 4.42, ND, 4.32 (controls 2 of 9).
With GFTLNSYGIS / VIYSDGRRTFYGDSTK / GRAAGTFKS the result was ND, ND, ND (controls 2 of 9).
With GITLNSYGIS / VIYSDGRETFYGDGVK / GRAAGTFDS the result was ND, ND, ND (controls 0 of 9).
With GFTLNSYSIS / VIYSDRRRTFYGHSVK / GRAAGTFDS the result was ND, ND, ND (controls 1 of 9).
With GFTLNSYQIS / VQYSDGRRTFYGDSNK / GRAAGTFDS the result was ND, ND, ND (controls 2 of 9).
With GFTLNSYGIS / VIYMDGRRTFYGDSVK / GRAAGTFDS the result was ND, ND, ND (controls 3 of 9).
With GFTLNSYGAS / VIYGDGRRTFYGDSVK / GRAAGTFDQ the result was 5.07, ND, ND (controls 2 of 9).
With GFTLRPYGIS / VIYSDGYRTFYGDSVK / GRAAGTFDS the result was ND, 3.94, ND (controls 1 of 9).
With GFTLNSYGIS / VIYSDGRRTIYGDSIK / GRAAGTFDS the result was 3.75, ND, ND (controls 0 of 9).
With NFTLNSYGIS / VIYSDGRMKFYGDSVK / GRAAGTFDS the result was ND, ND, ND (controls 0 of 9).
With WFTLNSYGIS / VIYSDGFRTFYGDSVK / GRAAGWFDS the result was ND, ND, ND (controls 2 of 9).
With GFTLNSYGIS / VIYSDGNRTFYGDSVK / GRAAGTFDS the result was 0.88, 1.06, 1.23 (controls 1 of 9).
With GFPLNSYGIS / VHYSDGRRTFYGDSVK / GRTAGTFDS the result was ND, 4.04, 3.41 (controls 4 of 9).
With GFTLNSYGIR / VIYSDGRRTFYGDSVK / GRAADTFDS the result was ND, ND, ND (controls 0 of 9).
With GFTLNSYGHS / VIYQDGRDTFYGDSVK / GRAAGTFDS the result was 6.38, 4.05, 4.43 (controls 6 of 9).
With GFTLNSYGIS / VIYTDGRHTFYGDSVK / GRAAGTFAS the result was ND, 4.22, ND (controls 0 of 9).
With GFTLNSYGIS / VIPPDGRRTFYGDSVK / GRAAGTFDT the result was 6.21, ND, 6.09 (controls 3 of 9).
With GFTLNSYGIS / VIYSDGSRTFYGDSDK / GIAAGTFDS the result was ND, ND, ND (controls 0 of 9).
With GFTLNSYGIS / VIYSDGRRTDYRHSVK / GRAAGTFDS the result was ND, ND, ND (controls 3 of 9).
With GFTLNSYGIS / VEYSDGRLTFYGDSVK / KRAAGTFDS the result was ND, ND, 4.47 (controls 3 of 9).

From the list, the first 2 with no signal in any replicate:

| CDR-H1 | CDR-H2 | CDR-H3 | log10 Kd, replicates | signal with controls |
|---|---|---|---|---|
| GVTLNSYGIS | VIYSDGRRTFYGDSCK | GRAAGYFDS | ND, ND, ND | 2/9 |
| GFTLNSYGIS | VIYSDVRRTFYGDSVK | GRAALTFDS | ND, ND, ND | 0/9 |